# Earlier results as cited in patent US11173139B2, “Method for extending lifespan delaying the onset of age-related disease” (priority 2004, dated 2021).
# Experiments:
# [1] = mice; cited from earlier work
# [2] = tested on: brain mitochondrial DNA; conditions: mice, kainic acid; cited from earlier work
substance,measurement,setting,value
alpha-ketoglutarate,LD50,[1],above 5 g/kg of body weight
same,protection of brain mitochondrial DNA,[2],protected brain mitochondrial DNA from damage
